Literature values as cited in PMC3845828 (Clinical cancer research : an official journal of the …, 2012).

What was measured:
[1] = administration of sRAGE; ref [11], [12]
amyloid-β = conditions: administration of sRAGE; ref [13]

## sRAGE: truncated form of RAGE; synthetic version of a naturally occurring secreted receptor form that sequesters RAGE ligands
Tumor cells; administration of sRAGE, ref [6]
  growth of tumor cells in animal studies: suppress the growth of tumor cells
Tumor cells; previously shown
  C6-glioma tumors: reduced C6-glioma tumors
Tumor cells; treatments with sRAGE, ref [8]
  tumor growth and metastasis in a murine model of lung cancer: suppresses tumor growth and metastasis
[1]
  outcomes in diabetes: improve outcomes in diabetes
amyloid-β
  transport of amyloid-β across the blood-brain barrier: block the transport of amyloid-β across the blood-brain barrier
